From publication PMC11513893, “Discovery of Oral Degraders of the ROS1 Fusion Protein with Potent Activity against Secondary Resistance Mutations” (Journal of Medicinal Chemistry, 2024)

Experiments:
[1] = system: Ba/F3 CD74-ROS1 non mutant; assay: Antiproliferation assay (Alamar Blue, 72 h); format: cell-based; settings: Mus musculus, BaF3, 72 h, Ba/F3 cells, cell growth inhibition
Description: (§1) To assess targeted degradation of ROS1 fusion proteins, we first established a mouse pro-B cell line Ba/F3 as a model expressing the CD74-ROS1 oncogene or CD74-ROS1 with clinically observed secondary/tertiary mutations. The Ba/F3 cell line is dependent on interleukin-3 for survival and proliferation. Upon transduction of oncogenic ROS1, Ba/F3 cells become independent of interleukin-3 but dependent on the transduced driver gene.
(§2) Ba/F3 immortalized murine bone marrow–derived pro-B cells were obtained from Creative Biogene (Shirley, NY) and cultured in RPMI supplemented with 10% FBS and IL3 (0.5 ng/mL). Ba/F3 cells expressing ROS1 variants were maintained in RPMI supplemented with 10% FBS and puromycin (0.7 mg/mL). […] Each compound was dissolved in DMSO and serially diluted in RPMI for cell culture experiments.
(§3) To assess the 72 h effect of drug treatment on cell proliferation, 2000 to 3000 cells were plated in replicates of three in 96-well plates. The plates were placed in an incubator at 37 °C, 5% CO2 for 72 h. Following drug treatments, the cells were incubated with the Alamar Blue Assay reagent (BioRad), 5 μL each well for 4 h at 37 °C and 5% CO2. Luminescence was measured on a multiplate reader and analyzed. […] IC50 values were determined using a nonlinear regression model with a sigmoidal dose response in GraphPad. […]

Ba/F3 ROS1 L2026M = assay: Antiproliferation assay; format: cell-based; settings: Mus musculus, BaF3; Ba/F3 cells, cell growth inhibition
Description: as §1, §2, §3

IC50 [1]: 16 ± 3.5 nM
IC50 (Ba/F3 ROS1 L2026M): 77 ± 9 nM
SMILES: C[C@@H](Oc1cc(-c2cnn(C3CCNCC3)c2)cnc1N)c1c(Cl)ccc(F)c1Cl [crizotinib]
